In US6992070B2 (priority 2000, dated 2006):

Test system: ex vivo perfused rabbit heart (ventricular myocytes), Adgal adenovirus gene transfer

## Substance P
Compared with bradykinin or serotonin
  speed of increase in microvascular permeability: faster than either bradykinin or serotonin
Ex vivo perfused heart, pretreatment before Adgal
  pretreatment (exposure) time required for the enhancement of infection: 2 min
